Patent US11464864B2, “Drug-bound compound and use thereof” (priority 2018, dated 2022)

Experiments:
[1] = guanidinium chloride salt
[2] = mice C57BL/6, ip, 93.4 mg kg^−1 (HCl salt), 30 minutes after injection

Substance	Solubility in aqueous solutions [1]	Tissue distribution (fluorescence in organ sections) [2]
1-O-[20-O—(N-succinyl-6-aminohexanoyl)camptothecin]-2,3,4,5-tetra-O—(N-{bis-[3-(N′,N″-bis-(tert-butoxycarbonyl)-guanidino)-propyl]}-6-aminohexanoyl)-6-O-(6-aminohexanoyl)-D-sorbitol⋅9HCl [compound (9)]	high solubility in aqueous solutions	
1-O-[20-O—(N-succinyl-6-aminohexanoyl)camptothecin]-2,3,4,5-tetra-O—(N-{bis-[3-N′,N″-bis-(tert-butoxycarbonyl)-guanidino)-propyl]}-6-aminohexanoyl)-6-O-[6-(fluoresceinyl-5-thioureido)-hexanoyl]-D-sorbitol⋅8HCl [compound (10)]		observed mainly in the kidney, the lung, the spleen, and is also observed even in the brain
